# Molecular target: T1, DPP-IV activity in rat plasma (Rattus norvegicus, UniProt P14740)
# By UniProt entry, the sequences of proteins in these tests, tags left out. Residues count along the entry.
# UniProt P14740, 38-767 limits assumed: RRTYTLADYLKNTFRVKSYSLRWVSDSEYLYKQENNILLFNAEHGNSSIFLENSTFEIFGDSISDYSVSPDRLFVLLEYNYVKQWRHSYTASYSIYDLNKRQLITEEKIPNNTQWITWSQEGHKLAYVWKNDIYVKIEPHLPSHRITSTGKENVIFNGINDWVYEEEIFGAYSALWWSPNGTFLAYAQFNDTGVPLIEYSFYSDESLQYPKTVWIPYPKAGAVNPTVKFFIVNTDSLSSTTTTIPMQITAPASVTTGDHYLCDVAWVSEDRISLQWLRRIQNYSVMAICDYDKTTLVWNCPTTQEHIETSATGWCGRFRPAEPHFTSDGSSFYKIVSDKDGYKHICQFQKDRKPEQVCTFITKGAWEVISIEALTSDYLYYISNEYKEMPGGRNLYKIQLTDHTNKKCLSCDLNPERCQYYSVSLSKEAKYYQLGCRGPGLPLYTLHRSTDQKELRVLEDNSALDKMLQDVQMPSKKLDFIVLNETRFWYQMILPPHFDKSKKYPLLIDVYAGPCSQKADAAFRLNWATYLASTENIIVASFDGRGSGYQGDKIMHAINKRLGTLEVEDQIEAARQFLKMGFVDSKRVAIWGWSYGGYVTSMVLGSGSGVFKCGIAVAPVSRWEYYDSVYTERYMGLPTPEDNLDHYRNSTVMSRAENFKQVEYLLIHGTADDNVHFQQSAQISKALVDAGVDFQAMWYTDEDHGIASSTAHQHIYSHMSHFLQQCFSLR
# T1 construct: 5 μl of plasma are added to 96-well flat-bottom micortiter plates; from tissue; host or cells: rat plasma
# Assay: Rat plasma DPP-IV assay
# Type: biochemical
row,IC50,Structure (SMILES)
1,5 nM,"CC(C)(CNc1ccc(C#N)cn1)NCC(=O)N1CCC[C@H]1C#N [Ex. 2A, 1-[[[2-[(5-cyano-2-pyridinyl)amino]-1,1-dimethylethyl]amino]acetyl]-2-cyano-(S)-pyrrolidine]"
2,42 nM,"N#CC1CCCN1C(=O)CNC1CCC(Oc2ccc(Cl)cc2)CC1 [Ex. 2FF, 1-[[4-[4-chlorophenoxy)cyclohexyl]amino]acetyl]-2-cyano-(S)-pyrrolidine]"

row,Structure (SMILES),IC50
1,"CC(C)(Cc1ccccc1)NCC(=O)N1CCC[C@H]1C#N [Ex. 2CC, 1-[[(1,1-dimethyl-2-phenylethyl)amino]acetyl]-2-cyano-(S)-pyrrolidine]",21 nM
